Assay results published in patent US20160257930A1, “NEURONAL STEM CELL DIFFERENTIATION” (priority 2013, published 2016).

Test system: iPS-derived neurons
Assay: Whole-cell patch-clamp, current clamp: spontaneous action potentials and resting Vm
Type: cell-based, human
Details: week 2, 1.8 mM Ca2+; 300 μM GABA added to 100 nM conotoxin; 1 μM BayK 8644 added to 10 μM bicuculline

NCCCC(=O)O [GABA, γ-aminobutyric acid]
rescue of spontaneous activity / excitability: re-established the ability of cells to fire action potentials
